Experimental data published in patent US20230002361A1, “2H-INDAZOLE DERIVATIVES AND THEIR USE IN THE TREATMENT OF DISEASE” (BIOGEN MA INC., priority 2019, published 2023).

Chains of the proteins cited; added tags and fusions are not shown.
UniProt Q9NWZ3, whole entry: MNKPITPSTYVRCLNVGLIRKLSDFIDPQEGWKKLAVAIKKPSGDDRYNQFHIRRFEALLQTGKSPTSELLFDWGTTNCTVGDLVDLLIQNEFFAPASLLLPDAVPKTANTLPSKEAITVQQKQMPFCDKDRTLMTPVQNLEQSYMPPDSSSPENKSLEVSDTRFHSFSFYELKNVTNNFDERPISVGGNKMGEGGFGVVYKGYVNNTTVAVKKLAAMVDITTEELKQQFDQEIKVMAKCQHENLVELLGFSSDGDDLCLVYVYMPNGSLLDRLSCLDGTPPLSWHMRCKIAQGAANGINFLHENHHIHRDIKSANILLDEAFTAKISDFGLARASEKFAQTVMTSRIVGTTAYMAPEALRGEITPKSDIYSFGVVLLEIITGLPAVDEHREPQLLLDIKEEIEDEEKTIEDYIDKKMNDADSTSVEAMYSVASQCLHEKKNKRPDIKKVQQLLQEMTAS
UniProt P08183, whole entry: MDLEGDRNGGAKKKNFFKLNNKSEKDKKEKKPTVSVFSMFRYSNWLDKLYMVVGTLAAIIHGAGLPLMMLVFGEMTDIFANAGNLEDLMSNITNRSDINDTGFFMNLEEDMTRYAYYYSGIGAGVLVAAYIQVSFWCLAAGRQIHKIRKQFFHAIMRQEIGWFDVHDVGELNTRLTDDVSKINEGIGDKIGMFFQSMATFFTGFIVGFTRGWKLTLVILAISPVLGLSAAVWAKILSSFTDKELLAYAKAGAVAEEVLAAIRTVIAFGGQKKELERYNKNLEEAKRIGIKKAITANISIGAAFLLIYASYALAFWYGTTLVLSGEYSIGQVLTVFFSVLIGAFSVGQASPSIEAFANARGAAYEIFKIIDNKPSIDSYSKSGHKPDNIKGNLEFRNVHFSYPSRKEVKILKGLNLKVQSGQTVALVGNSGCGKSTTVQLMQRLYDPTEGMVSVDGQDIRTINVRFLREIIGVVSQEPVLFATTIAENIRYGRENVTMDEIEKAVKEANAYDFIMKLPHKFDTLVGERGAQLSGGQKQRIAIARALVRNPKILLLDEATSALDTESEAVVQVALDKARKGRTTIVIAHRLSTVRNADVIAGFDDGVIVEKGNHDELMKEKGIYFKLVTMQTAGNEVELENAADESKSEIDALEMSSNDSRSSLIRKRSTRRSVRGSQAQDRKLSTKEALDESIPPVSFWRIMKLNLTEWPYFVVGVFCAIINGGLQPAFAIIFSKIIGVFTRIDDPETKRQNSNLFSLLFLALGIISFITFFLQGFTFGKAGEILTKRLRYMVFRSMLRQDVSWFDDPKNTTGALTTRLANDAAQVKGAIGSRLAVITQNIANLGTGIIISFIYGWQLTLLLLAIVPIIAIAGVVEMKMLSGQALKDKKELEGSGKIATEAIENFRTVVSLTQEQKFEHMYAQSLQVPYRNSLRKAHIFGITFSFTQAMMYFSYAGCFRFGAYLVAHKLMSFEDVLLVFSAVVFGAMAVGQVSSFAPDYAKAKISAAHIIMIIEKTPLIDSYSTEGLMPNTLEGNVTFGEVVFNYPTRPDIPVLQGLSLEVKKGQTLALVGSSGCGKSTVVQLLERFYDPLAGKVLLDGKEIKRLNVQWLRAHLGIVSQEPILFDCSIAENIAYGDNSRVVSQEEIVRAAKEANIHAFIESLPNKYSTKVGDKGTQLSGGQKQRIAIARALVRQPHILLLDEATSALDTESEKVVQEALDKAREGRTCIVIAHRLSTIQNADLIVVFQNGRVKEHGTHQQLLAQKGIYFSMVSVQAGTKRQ

Assays:
[1] = biological target: IRAK4 (Homo sapiens, UniProt Q9NWZ3); experiment: IRAK4 MSD Biochemical Assay (1 mM ATP, 2 h)
[2] = biological target: human MDR1 transfected MDCK cells (Homo sapiens, UniProt P08183); experiment: MDR1-MDCK assay (efflux ratio); details: 1 μM compound, 120 minutes incubation
Protocol: • The assay makes use of human MDR1 transfected MDCK cells (NIH cell line in-licensed from Absorption Systems) • The compounds are tested at 1 μM concentration prepared in transport buffer (Hank's balanced salt solution with HEPES) • MDR1-MDCK cell are cultured for 7 days in 96 well transwell insert plates (Corning). Insert plates are washed before the assay and TEER (Trans epithelial electric resistance) is measured. • These plates are loaded with test compound solution 85 μL for A-B transport and 260 μL for B-A transport in the respective donor compartment. The volume of receiver buffer (Transport buffer supplemented with 1% BSA) in the respective receiver compartment is 250 and 75 μL. • 10 μL samples is taken from donor compartment (T=0 timepoint) • Assay plates are incubated for 120 minutes. • At 120 minutes (T=120 timepoint) samples from respective donor (10 uL) and receiver (50 μL) compartments is taken. • After addition of 40 μL transport buffer with BSA to donor samples, crash solution (Acetonitrile with internal standard, 110 μL) is added to all samples. • After centrifugation 50 μL supernatant is transferred to separate plate and mixed with 50 μL water. • Samples are analyzed using LC-MS/MS coupled with high throughput injection system. • Analyte/internal standard area ratios are used for apparent permeability (Papp), efflux ratio and mass recovery estimation based on equations below.
Mass balance=100×((Vr×Cr^final)+(Vd×Cd^final))/(Vd×CE) • Where: • dCr/dt is the cumulative concentration in the receiver compartment versus time in μM s^−1 • Vr is the volume of the receiver compartment in cm^3 • Vd is the volume of the donor compartment in cm^3 • A is the area of the insert (0.143 cm^2 for 96-well insert) • CE is the estimated experimental concentration (Time=0) of the dosing solution • Cr^final is the concentration of the receiver at the end of the incubation period • Cd^final is the concentration of the donor at the end of the incubation period.

For `CC(C)Oc1cc2nn(C3CCOCC3)cc2cc1C(=O)Nc1ccccn1`, the IC50 ([1]; read-out: IRAK4 MSD Biochemical Assay (1 mM ATP, 2 h) IC50, room temperature, tested form: formate) was 9.9 nM and the MDR1-MDCK Efflux Ratio; (B-A/A-B) ([2]; tested form: formate) was 1.6.
Compound `CC(C)Oc1cc2nn(C3CCOCC3)cc2cc1C(=O)Nc1nccc(C(F)F)n1` has an IC50 ([1]; read-out: IRAK4 MSD Biochemical Assay (1 mM ATP, 2 h) IC50, room temperature, tested form: HCl) of 15.4 nM and an MDR1-MDCK Efflux Ratio; (B-A/A-B) ([2]; tested form: HCl) of 5.4.
With `Cc1cccc(NC(=O)c2cc3cn(CC4CCOC4)nc3nc2OC(C)C)c1F` (stereo not drawn) the IC50 ([1]; read-out: IRAK4 MSD Biochemical Assay (1 mM ATP, 2 h) IC50, room temperature) was 1.3 nM and the MDR1-MDCK Efflux Ratio; (B-A/A-B) [2] was 1.

Where two headings read alike, the source gives them in different places.
